In patent US9233949B2, “Treatment for oxidative stress and/or hypertension” (Georgetown University, priority 2009, dated 2016):

Molecular target: T1, AT1 receptor (AT1-R) (Homo sapiens, UniProt P30556)
T1 construct: Frozen human KAN-TS cells were thawed, diluted with assay buffer, homogenized; host or cells: human KAN-TS cells
Assay: Angiotensin II, Type 1 receptor radioligand binding displacement
Settings: 10^−9 M drug concentration, n=2 (FIG. 3A)
Experimental: Angiotensin II, Type 1 Assay.
Frozen human KAN-TS cells were thawed, diluted with assay buffer, homogenized, and stored on ice until addition to assay tubes. Angiotensin II, Type I (Human) assay was performed using a norvacreen method (CAT #: AT1-100 (Lot #: 75)). A Kd: [^125I]-Tyr4, Ile8-Angiotensin II=0.2 nM with a Bmax (Receptor density): 0.11 μmol/mg protein at an AT1 protein concentration of 8 mg/vial was used as a control. Briefly, the membranes were suspended in 50 mM TRIS-HCl containing 10% glycerol, 100 mM NaCl, 1 mM MgCl2, 0.1% BSA, 0.1 mM and bacitracin (pH 7.2 at 25° C.) in a vial of 1.5 mL. The assay incubation was 180 minutes at 25° C. Filters: GF/B filters were used pre-soaked in 0.1% PEI and a wash buffer (wash 5 times with 1 mL per tube) of 50 mM NaCl.

CCCc1nc2c(C)cc(-c3nc4ccccc4n3C)cc2n1Cc1ccc(-c2ccccc2C(=O)OC2CC(C)(C)N([O])C(C)(C)C2)cc1 [YK]
AT1-R displacement activity (radiolabeled Ang II): retains the full AT1-R displacement activity of telmisartan
